Data taken from US20160024487.

How the values were obtained:
[1] = tested on: Lys(Dnp)-ATNATIDPRIVGG-Lys(Abz)
[2] = tested on: Lys(Dnp)-ATNATYRPRIVGG-Lys(Abz)
[3] = tested on: Lys(Dnp)-ATNATEEPRIVGG-Lys(Abz)
[4] = tested on: Lys(Dnp)-ATNATTTPRIVGG-Lys(Abz)
[5] = tested on: Lys(Dnp)-ATNATX4X3PRIVGG-Lys(Abz), X4 = W, X3 = I
[6] = tested on: Lys(Dnp)-ATNATX4X3PRIVGG-Lys(Abz), X4 = N, X3 = T
[7] = tested on: Lys(Dnp)-ATNATPAPRIVGG-Lys(Abz)
[8] = tested on: Lys(Dnp)-ATNATGYPRIVGG-Lys(Abz)
[9] = tested on: Lys(Dnp)-ATNATYEPRIVGG-Lys(Abz)
[10] = tested on: Lys(Dnp)-ATNATX4X3PRIVGG-Lys(Abz), X4 = S, X3 = R
[11] = tested on: Lys(Dnp)-ATNATX4X3PRIVGG-Lys(Abz), X4 = H, X3 = F
[12] = tested on: Lys(Dnp)-ATNATFKPRIVGG-Lys(Abz)
[13] = tested on: Lys(Dnp)-ATNATMPPRIVGG-Lys(Abz)
[14] = tested on: Lys(Dnp)-ATNATFVPRIVGG-Lys(Abz)
[15] = tested on: Lys(Dnp)-ATNATGRPRIVGG-Lys(Abz)
[16] = tested on: Lys(Dnp)-ATNATFMPRIVGG-Lys(Abz)
[17] = tested on: Lys(Dnp)-ATNATETPRIVGG-Lys(Abz)
[18] = tested on: Lys(Dnp)-ATNATLGPRIVGG-Lys(Abz)
[19] = tested on: Lys(Dnp)-ATNATX4X3PRIVGG-Lys(Abz), X4 = G, X3 = R
[20] = tested on: Lys(Dnp)-ATNATDAPRIVGG-Lys(Abz)
[21] = tested on: Lys(Dnp)-ATNATVTPRIVGG-Lys(Abz)
[22] = tested on: Lys(Dnp)-ATNATAWPRIVGG-Lys(Abz)
[23] = tested on: Lys(Dnp)-ATNATX4X3PRIVGG-Lys(Abz), X4 = Q, X3 = Q
[24] = tested on: Lys(Dnp)-ATNATPKPRIVGG-Lys(Abz)
[25] = tested on: Lys(Dnp)-ATNATX4X3PRIVGG-Lys(Abz), X4 = G, X3 = I
[26] = tested on: Lys(Dnp)-ATNATX4X3PRIVGG-Lys(Abz), X4 = G, X3 = S
[27] = tested on: Lys(Dnp)-ATNATWEPRIVGG-Lys(Abz)
[28] = tested on: Lys(Dnp)-ATNATVIPRIVGG-Lys(Abz)
[29] = tested on: Lys(Dnp)-ATNATX4X3PRIVGG-Lys(Abz), X4 = S, X3 = S
[30] = tested on: Lys(Dnp)-NESTTKIKPRIVGG-Lys(Abz)
[31] = tested on: Lys(Dnp)-ATNATX4X3PRIVGG-Lys(Abz), X4 = Y, X3 = I
[32] = tested on: Lys(Dnp)-ATNATX4X3PRIVGG-Lys(Abz), X4 = Q, X3 = W
[33] = tested on: Lys(Dnp)-ATNATX4X3PRIVGG-Lys(Abz), X4 = D, X3 = Y
[34] = tested on: Lys(Dnp)-ATNATWIPRIVGG-Lys(Abz)
[35] = tested on: Lys(Dnp)-ATNATMFPRIVGG-Lys(Abz)
[36] = tested on: Lys(Dnp)-ATNATWKPRIVGG-Lys(Abz)
[37] = tested on: Lys(Dnp)-ATNATX4X3PRIVGG-Lys(Abz), X4 = K, X3 = D
[38] = tested on: Lys(Dnp)-ATNATIMPRIVGG-Lys(Abz)
[39] = tested on: Lys(Dnp)-ATNATYWPRIVGG-Lys(Abz)
[40] = tested on: Lys(Dnp)-ATNATADPRIVGG-Lys(Abz)
[41] = tested on: Lys(Dnp)-ATNATGFPRIVGG-Lys(Abz)
[42] = tested on: Lys(Dnp)-ATNATX4X3PRIVGG-Lys(Abz), X4 = A, X3 = E

## Human plasma purified alpha-thrombin
[1]
  FIIa kcat/KM: 2000 M⁻¹ s⁻¹
  Specificity Ratio (FIIa/FXa): 1

## Human plasma purified α-thrombin
[2]
  FIIa kcat/KM: 9500 M⁻¹ s⁻¹
  Specificity Ratio (FIIa/FXa): 16
  kcat/KM: 9500 M⁻¹ s⁻¹
[3]
  kcat/KM: 14 M⁻¹ s⁻¹
[4]
  FIIa kcat/KM: 1300 M⁻¹ s⁻¹
  Specificity Ratio (FIIa/FXa): 74
  kcat/KM: 1300 M⁻¹ s⁻¹
[5]
  FIIa kcat/KM: 1900 M⁻¹ s⁻¹
  Specificity Ratio (FIIa/FXa): 10
[6]
  FIIa kcat/KM: 870 M⁻¹ s⁻¹
  Specificity Ratio (FIIa/FXa): 60
[7]
  FIIa kcat/KM: 7000 M⁻¹ s⁻¹
  Specificity Ratio (FIIa/FXa): 40
[8]
  kcat/KM: 1500 M⁻¹ s⁻¹
[9]
  kcat/KM: 1700 M⁻¹ s⁻¹
[10]
  FIIa kcat/KM: 2300 M⁻¹ s⁻¹
  Specificity Ratio (FIIa/FXa): 18
[11]
  FIIa kcat/KM: 1000 M⁻¹ s⁻¹
  Specificity Ratio (FIIa/FXa): 25
[12]
  FIIa kcat/KM: 25000 M⁻¹ s⁻¹
  Functional Selectivity (Specificity*FIIa kcat/KM): 1.2e+07
  kcat/KM: 25000 M⁻¹ s⁻¹
[13]
  FIIa kcat/KM: 990 M⁻¹ s⁻¹
  Specificity Ratio (FIIa/FXa): 241
  kcat/KM: 990 M⁻¹ s⁻¹
[14]
  FIIa kcat/KM: 7100 M⁻¹ s⁻¹
  Functional Selectivity (Specificity*FIIa kcat/KM): 700000
  kcat/KM: 7100 M⁻¹ s⁻¹
[15]
  kcat/KM: 2700 M⁻¹ s⁻¹
[16]
  FIIa kcat/KM: 24000 M⁻¹ s⁻¹
  Functional Selectivity (Specificity*FIIa kcat/KM): 680000
  kcat/KM: 24000 M⁻¹ s⁻¹
[17]
  kcat/KM: 390 M⁻¹ s⁻¹
[18]
  FIIa kcat/KM: 8100 M⁻¹ s⁻¹
  Specificity Ratio (FIIa/FXa): 58
  kcat/KM: 8100 M⁻¹ s⁻¹
[19]
  FIIa kcat/KM: 2700 M⁻¹ s⁻¹
  Specificity Ratio (FIIa/FXa): 21
[20]
  kcat/KM: 7.7 M⁻¹ s⁻¹
[21]
  FIIa kcat/KM: 16000 M⁻¹ s⁻¹
  Functional Selectivity (Specificity*FIIa kcat/KM): 3.7e+06
  kcat/KM: 16000 M⁻¹ s⁻¹
[22]
  FIIa kcat/KM: 15000 M⁻¹ s⁻¹
  Specificity Ratio (FIIa/FXa): 32
  kcat/KM: 15000 M⁻¹ s⁻¹
[23]
  FIIa kcat/KM: 10000 M⁻¹ s⁻¹
  Specificity Ratio (FIIa/FXa): 7
[24]
  FIIa kcat/KM: 9400 M⁻¹ s⁻¹
  Functional Selectivity (Specificity*FIIa kcat/KM): 1.2e+06
  kcat/KM: 9400 M⁻¹ s⁻¹
[25]
  FIIa kcat/KM: 1300 M⁻¹ s⁻¹
  Specificity Ratio (FIIa/FXa): 15
[26]
  FIIa kcat/KM: 1300 M⁻¹ s⁻¹
  Specificity Ratio (FIIa/FXa): 26
[27]
  FIIa kcat/KM: 2100 M⁻¹ s⁻¹
  Specificity Ratio (FIIa/FXa): 89
  kcat/KM: 2100 M⁻¹ s⁻¹
[28]
  FIIa kcat/KM: 13000 M⁻¹ s⁻¹
  Functional Selectivity (Specificity*FIIa kcat/KM): 1.4e+06
  kcat/KM: 13000 M⁻¹ s⁻¹
[29]
  FIIa kcat/KM: 1000 M⁻¹ s⁻¹
  Specificity Ratio (FIIa/FXa): 26
[30]
  FIIa kcat/KM: 20000 M⁻¹ s⁻¹
  Functional Selectivity (Specificity*FIIa kcat/KM): 1.1e+07
  Specificity Ratio (FIIa/FXa): 559
[31]
  FIIa kcat/KM: 2100 M⁻¹ s⁻¹
  Specificity Ratio (FIIa/FXa): 31
[32]
  FIIa kcat/KM: 7800 M⁻¹ s⁻¹
  Specificity Ratio (FIIa/FXa): 6
[33]
  FIIa kcat/KM: 410 M⁻¹ s⁻¹
  Specificity Ratio (FIIa/FXa): 39
[34]
  kcat/KM: 1900 M⁻¹ s⁻¹
[35]
  FIIa kcat/KM: 11000 M⁻¹ s⁻¹
  Functional Selectivity (Specificity*FIIa kcat/KM): 2.1e+06
  kcat/KM: 11000 M⁻¹ s⁻¹
[36]
  FIIa kcat/KM: 13000 M⁻¹ s⁻¹
  Functional Selectivity (Specificity*FIIa kcat/KM): 4.2e+06
  kcat/KM: 13000 M⁻¹ s⁻¹
[37]
  FIIa kcat/KM: 1600 M⁻¹ s⁻¹
  Specificity Ratio (FIIa/FXa): 36
[38]
  FIIa kcat/KM: 41000 M⁻¹ s⁻¹
  Functional Selectivity (Specificity*FIIa kcat/KM): 820000
  kcat/KM: 41000 M⁻¹ s⁻¹
[39]
  FIIa kcat/KM: 6400 M⁻¹ s⁻¹
  Functional Selectivity (Specificity*FIIa kcat/KM): 760000
  kcat/KM: 6400 M⁻¹ s⁻¹
[40]
  FIIa kcat/KM: 2100 M⁻¹ s⁻¹
  Specificity Ratio (FIIa/FXa): 37
  kcat/KM: 2100 M⁻¹ s⁻¹
[41]
  kcat/KM: 1200 M⁻¹ s⁻¹
[42]
  FIIa kcat/KM: 3300 M⁻¹ s⁻¹
  Specificity Ratio (FIIa/FXa): 18
